Measurements as given in PubChem BioAssay AID463195 (Sanford-Burnham Center for Chemical Genomics, 2010).
The list shows a part of the results, in another mix than the full data. Calls of active or inactive are those of the source.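 Rule for the calls: active = inhibition of 40% or more at the single tested concentration; inactive = the rest.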

assay: growth inhibitors of isogenic TIM10 control yeast, primary screen, counter-screen for tim10-1 yeast inhibitor project, luminescence, uHTS (AID 463195);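 note: wild-type TIM10 isogenic control strain grown at permissive 25 °C; 0% = DMSO yeast wells and 100% = minimal medium wells without yeast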; details: S. cerevisiae TIM10 strain growth, BacTiter-Glo luminescence, 24 h; at 10 µM; hits give high values

Row | SMILES | inhibition
1 | ClCCSc1nnc(-c2cccnc2)o1 | inactive: 4.72%
2 | CC(C)c1ccc(OP(=O)(Nc2ccccn2)Oc2ccccc2F)cc1 (configuration not stated) | inactive: 0.45%
3 | CC(C)NC(=O)NP(=O)(Oc1ccccc1)Oc1ccccc1 | inactive: 10.9%
4 | CCN(CC)C(=S)SC(NC=O)C(Cl)(Cl)Cl (configuration not stated) | inactive: 13.7%
5 | O=C(OC1CN2CCC1CC2)c1cccc2[nH]cnc12 (configuration not stated) | inactive: 0.14%
6 | O=[N+]([O-])c1cc([N+](=O)[O-])c(-c2ccn[nH]2)s1 | active: 88%
7 | C[As](=O)(O)c1cccc(C(=O)O)c1 | inactive: -4.24%
8 | O=[As](O)(c1ccc(O)cc1)c1ccccc1O | inactive: -5.57%
9 | COc1cc(C(=O)NCC2(N3CCOCC3)CCCCC2)ccc1OCC(C)C | inactive: 9.61%
10 | Cc1ccc(OP(=O)(Nc2ccc([N+](=O)[O-])cn2)Oc2ccc(C)cc2)cc1 | inactive: -7.08%
11 | Cc1ccc2nc3c(c(C)c2c1)CC(C(Cl)Cl)S3 (configuration not stated) | inactive: 8.68%
12 | O=[N+]([O-])c1cc([N+](=O)[O-])c(CCN2CCOCC2)c([N+](=O)[O-])c1 | inactive: 14.5%
13 | CCN(N=Nc1nonc1N)c1nonc1N | inactive: 4.47%
14 | O=P(Nc1nc2ccc(Cl)cc2s1)(c1ccccc1)c1ccccc1 | inactive: 20.7%
15 | CC(=O)Nc1ccc([As](=O)(O)O)cc1 | inactive: 13.8%
16 | O=C(O)c1ccccc1[As](=O)(O)O | inactive: 3.56%
17 | Cc1cc(SC(NC(=O)c2ccc(F)cc2)C(Cl)(Cl)Cl)ncn1 (configuration not stated) | inactive: -3.19%
18 | CCOP(=O)(Nc1ccccc1)OCC | inactive: 3.59%
19 | Cc1ccc(NP(=O)(Oc2ccccc2F)Oc2ccccc2F)nc1 | inactive: 18.8%
20 | CN(C(=O)Cc1ccc(Cl)c(Cl)c1)[C@H]1CCCC[C@@H]1N1CCCC1 | inactive: -0.573%
21 | Oc1ccccc1CNc1ccccn1 | inactive: -8.94%

Row | SMILES | inhibition
22 | O=C(NC(Sc1ccncn1)C(Cl)(Cl)Cl)c1ccccc1 (configuration not stated) | inactive: 18%
23 | Cc1c2non([O-])c-2c(C)[n+](=O)[n+]1[O-] | inactive: 32.4%
24 | Nc1cc(N)c2nonc2c1[N+](=O)[O-] | inactive: 7.14%
25 | CC(C)CC(=O)NC(Sc1ccc(Cl)cc1)C(Cl)(Cl)Cl (configuration not stated) | inactive: 8.84%
26 | CN(C(=O)Cc1ccc(Cl)c(Cl)c1)[C@H]1CCCC[C@H]1N1CCCC1 | inactive: 4.6%
27 | Cc1ccc(N/C(=N/P(=O)(N2CCOCC2)N2CCOCC2)N2CCOCC2)cc1 | inactive: 10.1%
28 | NC(=O)c1cc([N+](=O)[O-])cc([N+](=O)[O-])c1N | inactive: -4.98%
29 | CN1CCCC(OC(=O)C(c2ccccc2)c2ccccc2)C1 (configuration not stated) | inactive: -9.98%
30 | Clc1ccc(Cl)c(NC2=NCC(CBr)S2)c1 (configuration not stated) | inactive: 14.5%
31 | COc1ccccc1OP(=O)(Nc1ccc(C)cn1)Oc1ccccc1OC | inactive: -3.25%
32 | Cc1ccc(OP(=O)(Nc2nccs2)Oc2ccc(C)cc2)cc1 | inactive: 20.9%
33 | CCN(/C(=N/P(=O)(N1CCOCC1)N1CCOCC1)N1CCOCC1)c1ccc(OC)cc1 | inactive: -7.72%
34 | Nc1ccc([As](=O)(O)c2ccc(N)cc2)cc1 | inactive: 5.18%
35 | C[N+]1=C2C=CC=CC=C2SC12C([N+](=O)[O-])=CC([N+](=O)[O-])=C[C-]2[N+](=O)[O-] (configuration not stated) | inactive: 15.8%
36 | CC1CCN(C(=O)Oc2c(Cl)cc(Cl)c3cccnc23)CC1 | inactive: 27.8%
37 | CC(C)=N/N=C(\N)N[N+](=O)[O-] | inactive: 1.23%
38 | CN(C)C(=O)OCCc1n(C)cc[n+]1C | inactive: -8.71%
39 | COc1ccc(C2=NCC(CBr)S2)cc1 (configuration not stated) | inactive: 16.7%
40 | Cc1ccc(NP(=O)(Oc2ccccc2)Oc2ccccc2)nc1 | inactive: 2.96%
41 | CCc1nc2c(n1)c1c(non1O)c1c2no[n+]1[O-] | inactive: -3.8%
42 | O=[N+]([O-])c1cc([N+](=O)[O-])c(CCNc2ccccc2)c([N+](=O)[O-])c1 | active: 56.8%

Row | SMILES | inhibition
43 | O=[N+]([O-])c1cccc2n[nH]nc12 | inactive: -18.4%
44 | CC(=O)N1C2C3N(C(C)=O)C1C1N(C(C)=O)C(C(N1C(C)=O)N3C(C)=O)N2C(C)=O | inactive: 10.4%
45 | O=[N+]([O-])c1ncn(CCn2ncnc2[N+](=O)[O-])n1 | inactive: 3.57%
46 | CC(C)(C)C(=O)NC(Sc1ccncn1)C(Cl)(Cl)Cl (configuration not stated) | inactive: -9.06%
47 | O=[N+]([O-])c1cccc(NC2=NCC(CBr)S2)c1 (configuration not stated) | inactive: 13.4%
48 | O=C(Nc1cc([As](=O)(O)O)ccc1O)c1ccccc1 | inactive: 2.93%
49 | O=[As](O)(c1ccccc1)c1ccc(O)cc1 | inactive: -11.7%
50 | O=[N+]([O-])c1ncn(CCn2cnc([N+](=O)[O-])n2)n1 | inactive: -14%
51 | O=C(OC1CN2CCC1CC2)c1cccc(Cl)c1 (configuration not stated) | inactive: -5.98%
52 | C(Cc1nn[nH]n1)Cc1nn[nH]n1 | inactive: -0.431%
53 | Nc1ccc([As](=O)(O)c2ccc([N+](=O)[O-])cc2)cc1 | inactive: -16.8%
54 | O=P(Nc1ccccn1)(c1ccc(Br)cc1)c1ccc(Br)cc1 | inactive: 8.75%
55 | CN(C)C1(CNC(=O)c2ccc(Cl)c(S(N)(=O)=O)c2)CCCCC1 | inactive: -18.8%
56 | O=P(Nc1nc2ccccc2s1)(c1ccccc1)c1ccccc1 | inactive: 10.1%
57 | C[C@H]1OP(=O)(Oc2ccccc2)[C@H](O)[C@H](O)[C@H]1N=[N+]=[N-] (some centres not stated) | inactive: 1.79%
58 | CC(C)C(=O)NC(Sc1ccccc1)C(Cl)(Cl)Cl (configuration not stated) | inactive: -21.9%
59 | O=P(Nc1nccs1)(c1ccccc1)c1ccccc1 | inactive: -0.666%
60 | c1nnnn1CCn1cnnn1 | inactive: -10.4%
61 | Cc1ccccc1CN(C)C(=O)COC(=O)C(O)(c1ccccc1)c1ccccc1 | inactive: 1.6%
62 | C[C@H]1OP(=O)(Oc2ccccc2)C[C@@H]2O[C@@H]21 (some centres not stated) | inactive: -7.65%
63 | C[C@@H]1C=CCP(=O)(Oc2ccccc2)O1 (some centres not stated) | inactive: -6.08%

Row | SMILES | inhibition
64 | CC(=O)c1ccc(N2CC2c2ccncc2)cc1 (configuration not stated) | inactive: -1.61%
65 | CC(=O)Nc1ccc([As](=O)(O)O)c(O)c1 | inactive: 6.71%
66 | CC(=O)Nc1ccc(Oc2c([N+](=O)[O-])cc([N+](=O)[O-])cc2[N+](=O)[O-])cc1 | inactive: 2.28%
67 | O=P1(Nc2nc3ccc(Cl)cc3s2)COc2ccccc2O1 (configuration not stated) | inactive: 4.34%
68 | CCOc1ccc(C2=NCC(CBr)S2)cc1 (configuration not stated) | inactive: 13.8%
69 | CC(C)(C)C(=O)NC(Sc1ccccc1)C(Cl)(Cl)Cl (configuration not stated) | inactive: 12.5%
70 | O=C(OC1CN2CCC1CC2)c1ccccc1 (configuration not stated) | inactive: -20.2%
71 | CCC(=O)N1C2C3N(C(=O)CC)C1C1N(C(=O)CC)C(C(N1C(=O)CC)N3C(=O)CC)N2C(=O)CC | inactive: 3.12%
72 | COC(=O)c1cc2c(s1)N=C(c1ccccc1)N(C)P2(=O)N1CCOCC1 (configuration not stated) | inactive: 2.95%
73 | CC(=O)NC(SC(=S)N(CC(C)C)CC(C)C)C(Cl)(Cl)Cl (configuration not stated) | inactive: 32.4%
74 | Cc1ccc(OP(=O)(Nc2ccccn2)Oc2ccc(C)cc2)cc1 | inactive: -15%
75 | CC(NC(=O)COC(=O)C(O)(c1ccccc1)c1ccccc1)c1ccccc1 (configuration not stated) | inactive: 13.2%
76 | Cc1ccccc1OP(=O)(Nc1ccccn1)Oc1ccccc1C | inactive: 30.4%
77 | CN(C)C(=O)Oc1noc2ccccc12 | inactive: 2.32%
78 | c1ccc(-c2nn[nH]n2)c(-c2nn[nH]n2)c1 | inactive: -6.83%
79 | Cc1ccc(NP(=O)(Oc2cccc(C)c2)Oc2cccc(C)c2)nc1 | inactive: -1.89%
80 | CCOC(=O)NC(Sc1ccccc1)C(Cl)(Cl)Cl (configuration not stated) | inactive: -7.94%
81 | CCNC(=S)/N=C(\N)N[N+](=O)[O-] | inactive: -3.94%
82 | O=C(NC1CCS(=O)(=O)C1)NP(=S)(Oc1ccccc1)Oc1ccccc1 (configuration not stated) | inactive: 2.24%
